## Antibody variant affinities, Ab-14 heavy chain, assay 1

Data: MIT Lincoln Laboratory AlphaSeq set, Engelhart et al. 2022, doi:10.1038/s41597-022-01779-4, as distributed in FLAb.

Target: peptide PDVDLGDISGINAS, taken from heptad repeat 2 (HR2) of SARS-CoV-2 spike.

Each scFv is VH, a (GGGGS)3 linker, VL, as in the parent Ab-14, and differs from it in the CDRs of the heavy chain only.
VH: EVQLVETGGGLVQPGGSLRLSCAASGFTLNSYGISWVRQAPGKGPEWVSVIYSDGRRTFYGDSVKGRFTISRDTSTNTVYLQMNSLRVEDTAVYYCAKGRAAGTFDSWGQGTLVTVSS
VL: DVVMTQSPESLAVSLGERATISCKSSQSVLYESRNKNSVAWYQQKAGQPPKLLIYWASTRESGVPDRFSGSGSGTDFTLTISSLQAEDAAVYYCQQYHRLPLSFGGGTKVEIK

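The starting antibody came from a phage panning campaign against this peptide. AAYL49 was designed without a model: most single CDR substitutions and a random sample of double and triple ones. Affinity was read by AlphaSeq, a pooled yeast mating assay with surface-displayed partners. Binding brings cells together so that they mate, and sequencing counts the barcode pairs among the diploids. Read counts were normalised to the haploid input and turned into Kd by a linear fit to BCL2-family pairs of known affinity, for each replicate. There are three technical replicates.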

Changes read parent residue, position, new residue, counted from the first residue of the VH shown.
Numbers give log10(Kd / nM), so 0 is 1 nM and 3 is 1 µM. Smaller is tighter.
A mean of the replicates is given; it leaves out those without a signal.
"not detected" marks a missing value. The strain was present, yet no cells mated with the target were sequenced in any replicate, which points to weak or no binding.

| changes | mean, log10 nM | seen in |
|---|---|---|
| G33K/I51H/A102N | not detected | 0/3 |
| Y32M/T58E/G99R | not detected | 0/3 |
| N30E/F59L/F105W | 3.36 | 1/3 |
| G26A/G33D/R56M | 2.49 | 1/3 |
| Y52Q/R56M/T58H | 3.40 | 1/3 |
| R100S/T104Y | not detected | 0/3 |
| G33H/D54H/D106L | not detected | 0/3 |
| I34K/F59L/G99T | not detected | 0/3 |
| T28A/N30T/S107R | 1.03 | 3/3 |
| I34G/I51A/D54R | 4.39 | 1/3 |
| I51N/D54R/G99W | 3.82 | 3/3 |
| G26E/S35F/T58S | 4.01 | 1/3 |
| S31T/V50D/T58E | 4.16 | 3/3 |
| I34C/G61Q/G103D | 3.49 | 1/3 |
| N30D/D106R | 0.95 | 3/3 |
| S31M/S35Y/R100G | 5.14 | 2/3 |
| V50G/Y60V/A101S | not detected | 0/3 |
| G26S/S53F/G61D | 2.41 | 3/3 |
| Y52C/D54M/G61M | 6.00 | 1/3 |
| S31H/D62Q/D106W | not detected | 0/3 |
| I34E/R56A/T58G | 3.92 | 1/3 |
| V50D/Y52I/R57H | 2.93 | 1/3 |
| I51G/G61D/T104P | 5.26 | 2/3 |
| G33H/V50Q/G99A | not detected | 0/3 |
| I34F/R56T/T104G | 4.61 | 1/3 |
| F27L/L29N/K65L | 5.16 | 1/3 |
| G61A/K65I/A102I | not detected | 0/3 |
| L29H/V64N/A102R | 5.20 | 1/3 |
| G33D/Y52A/T58W | 5.00 | 2/3 |
| T28L/R56V/D106C | not detected | 0/3 |
| V50H/K65I/S107C | 4.47 | 3/3 |
| R56Y/G103Q/D106V | 3.45 | 2/3 |
| Y32H/D106Q | not detected | 0/3 |
| I34R/I51H/D54R | 3.37 | 1/3 |
| Y32E/G33C/R100H | 4.55 | 1/3 |
| V50T/G55S/S63H | 3.29 | 1/3 |
| Y60D/G61P/T104H | 4.35 | 2/3 |
| Y32C/G55E/D106W | 3.25 | 1/3 |
| G26A/D54F/A102H | not detected | 0/3 |
| F27C/G61V/F105N | not detected | 0/3 |
| I34K/R57W/D62V | not detected | 0/3 |
| D62N/S107D | 1.76 | 3/3 |
| R56M/S107H | 1.73 | 3/3 |
| I34G/D62Q/F105I | not detected | 0/3 |
| G33A/G55S/F59N | not detected | 0/3 |
| Y32L/S63R/G103P | not detected | 0/3 |
| F27I/D62V/G103W | 4.59 | 1/3 |
| G26C/Y32H/Y52R | not detected | 0/3 |
| N30P/S63I/V64K | 4.09 | 1/3 |
| N30G/Y52R/D106L | not detected | 0/3 |
| Y32G/T104M/S107I | 3.48 | 1/3 |
| I51R/R100V/S107C | not detected | 0/3 |
| G26P/I34K/F59C | 4.10 | 3/3 |
| R57W/V64G | not detected | 0/3 |
| D54Y/R57I/G99K | 4.37 | 2/3 |
| N30W/D54N/Y60R | not detected | 0/3 |
| L29T/Y60M/R100S | not detected | 0/3 |
| I34C/G55R/R57K | 3.15 | 2/3 |
| S53I/G55I/Y60K | 4.59 | 1/3 |
| D62P/A101F/G103R | 2.80 | 3/3 |
| R56P/Y60A/V64Q | not detected | 0/3 |
| V50C/S107W | not detected | 0/3 |
| G33A/Y60N/G99S | not detected | 0/3 |

Repeated from above, the 8 best binders with a signal in all replicates:

changes	mean, log10 nM	seen in
N30D/D106R	0.95	3/3
T28A/N30T/S107R	1.03	3/3
R56M/S107H	1.73	3/3
D62N/S107D	1.76	3/3
G26S/S53F/G61D	2.41	3/3
D62P/A101F/G103R	2.80	3/3
I51N/D54R/G99W	3.82	3/3
G26P/I34K/F59C	4.10	3/3

Nonspecific signal, from three strains lacking the peptide, appeared in 15% of pairings of library AAYL49, centred on 4.06 (5% of these signals below 2.83); values are not corrected for it.